Experimental data: patent publication US4565817A, “Theophyllinyl-alkyl-oxadiazoles, process for the preparation thereof and pharmaceutical compositions containing same” (Chinoin Gyogyszer-es Vegyeszeti Termekek Gyara R.T., priority 1982, dated 1986)

Assay: in vivo
Conditions: mouse

Work on `Cc1nc(Cn2cnc3c2c(=O)n(C)c(=O)n3C)no1` [Example 1, 7-[(5-methyl-1,2,4-oxadiazol-3-yl)-methyl]-theophylline] yielded an LD50 (iv) of 416 mg/kg and an LD50 (po) of 1430 mg/kg.
